The values below come from patent US9206232B2, “Organic compounds and their uses” (Novartis AG, priority 2009, dated 2015).

Sequences of proteins named here, by UniProt entry; tags and fusion partners are left off. A change or cut given only in a name is not applied to a line headed by its entry.
UniProt P26664: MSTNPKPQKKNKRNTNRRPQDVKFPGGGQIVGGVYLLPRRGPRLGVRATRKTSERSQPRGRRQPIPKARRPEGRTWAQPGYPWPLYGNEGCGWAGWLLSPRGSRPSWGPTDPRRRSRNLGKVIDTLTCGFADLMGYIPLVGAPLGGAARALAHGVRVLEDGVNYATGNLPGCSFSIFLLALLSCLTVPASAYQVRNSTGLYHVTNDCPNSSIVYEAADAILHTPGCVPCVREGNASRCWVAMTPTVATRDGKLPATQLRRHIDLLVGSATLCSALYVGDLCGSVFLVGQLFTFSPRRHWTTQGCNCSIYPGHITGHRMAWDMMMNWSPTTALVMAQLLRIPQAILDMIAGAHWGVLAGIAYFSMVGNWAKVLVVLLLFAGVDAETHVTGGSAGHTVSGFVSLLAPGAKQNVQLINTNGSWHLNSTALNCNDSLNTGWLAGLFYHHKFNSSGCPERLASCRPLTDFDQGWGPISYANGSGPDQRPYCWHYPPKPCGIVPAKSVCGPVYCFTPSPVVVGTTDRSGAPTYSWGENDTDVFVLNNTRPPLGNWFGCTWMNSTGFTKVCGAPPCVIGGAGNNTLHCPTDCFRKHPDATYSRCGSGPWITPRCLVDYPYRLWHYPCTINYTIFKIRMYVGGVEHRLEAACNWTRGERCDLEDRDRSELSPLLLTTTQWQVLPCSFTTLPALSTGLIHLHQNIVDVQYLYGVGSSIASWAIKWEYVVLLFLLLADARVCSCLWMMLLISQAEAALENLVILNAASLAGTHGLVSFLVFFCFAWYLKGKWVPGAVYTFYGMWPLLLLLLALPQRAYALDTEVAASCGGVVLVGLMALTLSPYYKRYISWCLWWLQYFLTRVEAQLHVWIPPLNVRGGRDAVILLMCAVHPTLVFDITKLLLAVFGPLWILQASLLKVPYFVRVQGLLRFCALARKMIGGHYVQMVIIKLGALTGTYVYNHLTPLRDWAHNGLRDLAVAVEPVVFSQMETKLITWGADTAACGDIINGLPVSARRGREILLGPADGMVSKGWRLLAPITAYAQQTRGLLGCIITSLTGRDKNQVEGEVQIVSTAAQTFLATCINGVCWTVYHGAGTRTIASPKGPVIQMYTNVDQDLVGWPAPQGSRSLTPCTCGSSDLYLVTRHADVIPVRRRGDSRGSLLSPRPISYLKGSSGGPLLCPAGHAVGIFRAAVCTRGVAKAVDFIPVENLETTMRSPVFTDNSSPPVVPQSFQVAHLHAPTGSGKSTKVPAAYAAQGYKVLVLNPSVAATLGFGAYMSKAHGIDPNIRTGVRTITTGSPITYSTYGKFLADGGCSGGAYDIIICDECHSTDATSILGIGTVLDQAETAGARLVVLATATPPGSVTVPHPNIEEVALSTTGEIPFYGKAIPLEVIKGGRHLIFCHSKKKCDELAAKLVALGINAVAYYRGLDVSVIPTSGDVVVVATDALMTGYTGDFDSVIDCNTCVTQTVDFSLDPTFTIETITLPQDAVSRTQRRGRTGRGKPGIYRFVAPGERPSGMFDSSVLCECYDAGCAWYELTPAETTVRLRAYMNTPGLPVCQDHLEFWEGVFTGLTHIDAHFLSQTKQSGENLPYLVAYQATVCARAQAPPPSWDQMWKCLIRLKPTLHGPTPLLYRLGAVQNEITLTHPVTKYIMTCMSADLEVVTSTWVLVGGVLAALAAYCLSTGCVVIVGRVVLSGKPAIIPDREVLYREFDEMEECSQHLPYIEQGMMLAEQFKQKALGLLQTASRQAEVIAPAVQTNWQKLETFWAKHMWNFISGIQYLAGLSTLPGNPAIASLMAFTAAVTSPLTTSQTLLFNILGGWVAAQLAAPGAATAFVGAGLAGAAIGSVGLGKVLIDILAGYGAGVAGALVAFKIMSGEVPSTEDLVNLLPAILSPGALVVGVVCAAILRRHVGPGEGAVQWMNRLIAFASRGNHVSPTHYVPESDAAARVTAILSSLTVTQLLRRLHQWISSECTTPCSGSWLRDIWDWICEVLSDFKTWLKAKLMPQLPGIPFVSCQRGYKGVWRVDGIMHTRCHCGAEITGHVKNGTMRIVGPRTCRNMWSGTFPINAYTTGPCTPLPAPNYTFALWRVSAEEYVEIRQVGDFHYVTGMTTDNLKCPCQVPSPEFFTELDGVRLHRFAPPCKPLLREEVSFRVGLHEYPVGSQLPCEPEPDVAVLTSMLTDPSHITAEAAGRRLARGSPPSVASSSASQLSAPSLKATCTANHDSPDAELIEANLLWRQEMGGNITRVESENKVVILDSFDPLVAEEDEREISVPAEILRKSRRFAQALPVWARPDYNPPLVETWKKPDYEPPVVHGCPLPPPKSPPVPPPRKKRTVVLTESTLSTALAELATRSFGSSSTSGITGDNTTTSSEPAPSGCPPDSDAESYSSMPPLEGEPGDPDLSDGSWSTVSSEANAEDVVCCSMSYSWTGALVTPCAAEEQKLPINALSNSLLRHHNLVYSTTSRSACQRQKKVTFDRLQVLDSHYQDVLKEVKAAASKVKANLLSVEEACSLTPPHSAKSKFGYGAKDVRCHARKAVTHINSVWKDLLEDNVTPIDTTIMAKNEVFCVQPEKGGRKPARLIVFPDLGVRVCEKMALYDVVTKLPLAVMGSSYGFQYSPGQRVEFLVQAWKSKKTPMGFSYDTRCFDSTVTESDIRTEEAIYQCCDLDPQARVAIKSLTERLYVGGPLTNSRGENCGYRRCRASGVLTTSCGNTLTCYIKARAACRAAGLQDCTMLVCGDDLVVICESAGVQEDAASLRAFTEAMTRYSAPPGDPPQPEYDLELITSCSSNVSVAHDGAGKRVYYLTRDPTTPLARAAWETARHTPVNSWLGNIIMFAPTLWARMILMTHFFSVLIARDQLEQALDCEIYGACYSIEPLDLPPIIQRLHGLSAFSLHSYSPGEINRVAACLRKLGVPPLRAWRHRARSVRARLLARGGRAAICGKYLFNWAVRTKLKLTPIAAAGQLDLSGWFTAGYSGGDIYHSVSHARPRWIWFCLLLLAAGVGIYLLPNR

Broadly, the IC50 is the concentration needed to halve the response being measured.

The target of this assay is HCV NS3-4A serine protease (full-length NS3-4A protein) (Hepatitis C virus genotype 1a (isolate 1) (HCV), UniProt P26664). Briefly: HCV NS3-4A protease assay. It is filed as biochemical, HCV genotype 1a. The note with it: genotype 1a strain HCV-1, fluorogenic peptide substrate, read-out: Protease assay Ex. 12 IC50. As for the experimental part: The inhibitory activity of certain compounds of Table A against HCV NS3-4A serine protease is determined in a homogenous assay using the full-length NS3-4A protein (genotype 1a, strain HCV-1) and a commercially available internally-quenched fluorogenic peptide substrate as described by Taliani, M., et al. 1996 Anal. Biochem. 240:60-67, which is incorporated by reference in its entirety.

As to `C=C[C@@H]1C[C@]1(NC(=O)[C@@H]1C[C@@]2(CN1C(=O)[C@@H](NC(=O)[C@@H](NC(=O)[C@@H]1CCCN1C1CCCC1)C(C)(C)C)C(C)(C)C)C(C)(C)C21CCC1)C(=O)NS(=O)(=O)N1CCCC1` [Example 27, (5R,8S)-7-[(2S)-2-{[(2S)-2-({[(2S)-1-cyclopentylpyrrolidin-2-yl]carbonyl}amino)-3,3-dimethylbutanoyl]amino}-3,3-dimethylbutanoyl]-10,10-dimethyl-N-{(1R,2S)-1-[(pyrrolidin-1-ylsulfonyl)carbamoyl]-2-vinylcyclopropyl}-7-azadispiro[3.0.4.1]decane-8-carboxamide], the concentration for half-maximal inhibition (IC50) came out at 10 nM.
For the compound `CC[C@@H]1C[C@]1(NC(=O)[C@@H]1C[C@@]2(CN1C(=O)[C@@H](NC(=O)[C@@H](NC(=O)[C@@H]1CCCN1CC)C1CCCCC1)C(C)(C)C)C(C)(C)C21CCC1)C(=O)NS(=O)(=O)N(CC)CC` [Compound 100], the concentration for half-maximal inhibition (IC50) was 10 nM.
